Reference: US20120059036A1, “METHOD FOR REDUCING THROMBOCYTOPENIA AND THROMBOCYTOPENIA-ASSOCIATED MORTALITY” (priority 2008, published 2012)

Test system: patients experiencing ST-segment elevation myocardial infarction (STEMI)
Experiment: MULTISTRATEGY safety analysis: bleeding, transfusion, thrombocytopenia and thrombocytopenia-associated mortality
Conditions: At 30 d, number of patients
Method: The inclusion criteria were (1) chest pain for longer than 30 minutes with an electrocardiographic ST-segment elevation of 1 mm or greater in two or more contiguous electrocardiogram leads, or with a new left bundle-branch block, and (2) admission either within 12 hours of symptom onset or between 12 and 24 hours after onset with evidence of continuing ischemia. The exclusion criteria included administration of fibrinolytics in the previous 30 days, major surgery within 15 days, and active bleeding or previous stroke in the last six months. Immediately after eligibility criteria were met and before the visualization of coronary arteries through angiography, the treating physician at each investigational site performed open-label assignments of study treatments via sealed envelopes.
This type of regimen is described in U.S. Pat. No. 6,770,660. Abciximab was administered in a 0.25 mg/kg bolus, followed by 0.125 μg/kg/min continuous infusion for 12 hours. The administration of both drugs began at first medical contact, before arterial sheath insertion. […]
Discrete data were summarized as frequencies, and comparisons were made with the likelihood-ratio χ^2 test or Fisher exact test. Continuous data were expressed as mean (SD) or median and interquartile range according to their distribution; comparisons were made with a one-way analysis of variance or the Kruskal-Wallis test.

In the case of CCCCS(=O)(=O)N[C@@H](Cc1ccc(OCCCCC2CCNCC2)cc1)C(=O)O.Cl.O [Tirofiban Plus Uncoated Stent], the “Moderate thrombocytoperia (<100000 cells/mm^3)” value is reported as 1 No and the “Severe thrombocytoperia (<50000 cells/mm^3)” value is reported as 2 No.
